From patent publication US12527762B2 (priority 2021, dated 2026)

Tests used:
[1] = system: MDA-MB-453 HER2-positive breast cancer cell line; assay: Luminescent cell viability assay (CellTiter glo), subtype-specific breast cancer cell lines; assay type: cell-based
[2] = system: HCC1419 HER2-positive breast cancer cell line; assay: as above; assay type: cell-based

“Herceptin: positive control drug, HER2-positive breast cancer [reference compound]” was tested, and the IC50 [1] was no less than 25 µM and the IC50 [2] was no less than 25 µM.
